Earlier results as cited in US6107104A, “Modulators of anchoring protein function” (ICOS Corporation, priority 1996, dated 2000).

What was measured:
[1] = cited from earlier work
[2] = human, in vivo; cited from earlier work

Q: Which response rate ([1]; low dose subcutaneous or continuous infusion therapy) does the source give for IL-2: interleukin 2 given as therapy here?
A: 12%

Q: And the “patients responding to therapy” value ([1]; metastatic renal cell carcinoma or malignant melanoma)?
A: 15-20%

Q: And the “patients experiencing changes in mental status” value [2]?
A: Over 70%

Q: What about the “patients requiring intubation and mechanical ventilation” value [2] of the same substance?
A: Up to 20%

Q: And the “treated patients with anemia requiring transfusions” value [2]?
A: 15-20%
